Measured values taken from article PMC5799093, “Proceedings of Réanimation 2018, the French Intensive Care Society International Congress” (Annals of Intensive Care, 2018).

Legend:
[1] = tested on: Stenotrophomonas maltophilia VAP; experiment: Risk factors for Stenotrophomonas maltophilia VAP, matched analysis; type: in vivo, patients; conditions: exposure during the week before VAP
Procedure: Patients and methods: We conducted a retrospective analysis of prospectively collected data in a multicenter database in France. VAP was determined as microbiologically documented pneumonia occurring after at least two days of mechanical ventilation. All patients admitted from 2000 to 2015 presenting at least one episode of VAP were included. SM-VAP were compared with VAP due to other micro-organisms (VAP-other). To assess risk factors and day-30 (D30) mortality, SM-VAP were matched (1 − n) with VAP-other based on center, time from ICU admission to VAP occurrence, and SAPS II score.

[2] = tested on: patients after out-of-hospital cardiac arrest; experiment: Double-blind randomized trial of short-term antibiotic prophylaxis after cardiac arrest with therapeutic hypothermia (early VAP); conditions: in vivo
[3] = Acute insulin overdose with suicidal attempt; type: in vivo, patients

Substance: Imipenem-Meropenem
- OR for SM-VAP, multivariate analysis [1]: 2.68 [1.51;4.75]
- OR for SM-VAP, univariate analysis ([1]; 93 cases, 380 controls): 3.18 [1.82 ; 5.49]

Substance: amoxicillin-clavulanic acid
- adverse events related to study treatment [2]: no adverse event was related to study treatment

Substance: insulin
- median capillary glycaemia on the first medical contact ([3]; [36 + 71], 62 patients): 44 mg·dL
- favorable outcome ([3]; in vivo): 95%
- hypokalemia ([3]; in vivo): 29%
